Columns and labels:
Type in all cases: cell-based, human
tight junctions of HAE = test: Tight junction integrity in HAE (ZO-1 immunostaining, confocal microscopy)
Method: FIG. 8. The effect of PAF on tight junction integrity in HAE. PAF was added to the apical surface at a concentration of 200 nM. The cells were fixed at the end of either 8 hours (a) or 24 hours (b) and then stained for nuclei and tight junctional protein ZO-1. The cells were then visualized by confocal microscopy. In each, top panel: x-y and bottom panel: x-z.
(§1) A well-studied effect of PAFR stimulation is the activation of mediators that can generate inflammatory responses (38-41). As a mediator of inflammation, PAFR activation can alter tight junction integrity in endothelial and intestinal epithelial cells. We examined the effects of PAF on tight junction integrity in airway epithelia. […] We also examined epithelial cell morphology after PAF-assisted transfection. […] Cytotoxicity was also assessed by lactate dehydrogenase release.

HAE = test: Epithelial cell morphology after PAF-assisted transfection (H&E); details: 1 and 10 days after PAF-assisted transfection
Method: as §1

HAE cells = test: LDH-cytotoxicity colorimetric assay; details: PAF treated HAE with DsiRNA transfection
Method: The LDH-cytotoxicity colorimetric assay kit (BioVision, Milpitas, Calif.) was used according to the manufacturer's instructions. Experimental and control samples were assayed in triplicate. The samples consisted of HAE cells treated with PAF and transfection with negative control DsiRNA or HPRT DsiRNA. A negative control consisted of culture medium from cells treated with DsiRNA but not PAF. The positive control medium came from cells exposed to Triton x-100 (1%) both apically and basolaterally for 30 minutes at 37° C. After the treatment period, 100 μl of culture media was transferred into an optically clear 96-well plate and an equal volume of reaction mixture added to each well and incubated for up to 30 minutes at room temperature. The absorbance was measured at 495 nm using a microplate reader (VERSAmax, Molecular Devices, Sunnyvale, Calif.). The background value was subtracted and the percentage cytotoxicity was calculated using the formula: (Test sample-Negative control)/(Positive control-Negative control)*100.

platelet activating factor [PAF]
tight junction morphology (ZO-1 immunostaining) (tight junctions of HAE; 24 hour of PAF treatment): significant alterations in tight junction morphology
tight junction morphology (ZO-1 immunostaining) (tight junctions of HAE; PAF on apical and basolateral surfaces for 8 hours): no alteration of tight junction morphology
tight junction integrity (tight junctions of HAE; long-term PAF treatment (greater than 24 hours)): reduced tight junction integrity
cell morphology compared to control treated epithelium (H&E) (HAE): no changes in cell morphology
cytotoxicity by lactate dehydrogenase release (HAE cells): minimal evidence of cytotoxicity

From patent US9987299B2, “Methods of improving RNAi in well-differentiated airway epithelia” (University of Iowa Research Foundation, priority 2014, dated 2018)
